# Test: Particle size of RNA-poly-L-arginine complexes by Dynamic Light Scattering
# Conditions: 10 minute incubation (FIG. 9)
substance,measurement,value
"CACACACACACACACACACA [pCA, reference compound]",Particle size (diameter) of RNA-poly-L-arginine complexes,behaved similarly

# Source: patent US20240042019A1, “OPTIMIZED TLR7 LIGANDS AND USES THEREOF” (Genentech, Inc., priority 2021, published 2024)
